Values of other authors as cited in PMC5957473, “Small Molecule Neuropilin-1 Antagonists Combine Antiangiogenic and Antitumor Activity with Immune Modulation through Reduction of Transforming Growth Factor Beta (TGFβ) Production in Regulatory T-Cells” (Journal of Medicinal Chemistry, 2018).

Parameters: method as in PMID 26755653
Settings: historical compound; cited from earlier work

In the case of `N=C(N)NCCC[C@H](NC(=O)c1sccc1NS(=O)(=O)c1cccc2nsnc12)C(=O)O` [EG00229, (S)-2-(3-(benzo[c][1,2,5]thiadiazole-4-sulfonamido)thiophene-2-carboxamido)-5-((diaminomethylene)amino)pentanoic acid], the half-life is given as 30 min.
